Patent US11052131B2, “Methods and pharmaceutical compositions for the treatment of kidney cancer” (INSERM (Institut National de la Santé et de la Recherche …, priority 2016, dated 2021)

Molecular target: T1, human GFP-APJ fusion protein (Homo sapiens, UniProt P35414)
T1 construct: expressed in transfected cells
T1 sequence (P35414 1-380): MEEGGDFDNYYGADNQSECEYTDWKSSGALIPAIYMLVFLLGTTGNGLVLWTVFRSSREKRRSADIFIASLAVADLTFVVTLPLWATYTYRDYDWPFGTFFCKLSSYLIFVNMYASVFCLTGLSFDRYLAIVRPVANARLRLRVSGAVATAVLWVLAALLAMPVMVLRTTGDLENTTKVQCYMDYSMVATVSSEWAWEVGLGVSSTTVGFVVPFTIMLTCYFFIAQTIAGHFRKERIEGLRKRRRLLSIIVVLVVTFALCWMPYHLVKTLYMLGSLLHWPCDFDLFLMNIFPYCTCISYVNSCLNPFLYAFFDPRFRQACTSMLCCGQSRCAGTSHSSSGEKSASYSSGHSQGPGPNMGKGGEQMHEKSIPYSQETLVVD
Test: APJ receptor internalization assay in HEK293A cells expressing GFP-APJ
Type: cell-based
Details: 1 μM peptide, 30 min, HEK293 cells expressing GFP-APJ
Experimental: HEK293A cells stably expressing human GFP-APJ fusion protein were serum starved for 24 hours, and treated for 30 minutes with 1 μM Ela 11, wild type proEla 32 or mutant proEla 32 peptide. Cells were fixed with 4% paraformaldehyde for 10 minutes at room temperature and APJ receptor internalization was analyzed using a Nikon epifluorescence microscopy.
Ligand-induced receptor internalization is a cellular response of APJ to ligand binding and its activation. To investigate whether mature ELA 11, wild type and mutant pro Ela 32 will induce APJ internalization, we expressed in stable manner APJ as a fusion protein with enhanced green fluorescent protein (GFP-APJ, data not shown) through lentiviral infection in HEK293 cells and examined its intracellular localization in response to indicated Ela peptides. At the basal level, the fusion protein was mainly localized at the cell surface.

QRPVNLTMRRKLRKHNCLQRRCMPLHSRVPFP [wild type proEla 32]
APJ internalization: able to activate the APJ receptor and mediate its internalization
